# scFv variants of Ab-95 (light chain) against a SARS-CoV-2 spike peptide

Source: Engelhart et al. 2022 (doi:10.1038/s41597-022-01779-4), MIT Lincoln Laboratory and A-Alpha Bio; data file from the FLAb repository.

Target: peptide PDVDLGDISGINAS, taken from heptad repeat 2 (HR2) of SARS-CoV-2 spike.

Parent: Ab-95, a human scFv built as VH, the linker GGGGSGGGGSGGGGS, VL. Only the CDRs of the light chain vary.
VH: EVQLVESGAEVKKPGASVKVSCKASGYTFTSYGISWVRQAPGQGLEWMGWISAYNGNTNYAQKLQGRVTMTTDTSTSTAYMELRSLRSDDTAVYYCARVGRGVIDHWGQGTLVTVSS
VL: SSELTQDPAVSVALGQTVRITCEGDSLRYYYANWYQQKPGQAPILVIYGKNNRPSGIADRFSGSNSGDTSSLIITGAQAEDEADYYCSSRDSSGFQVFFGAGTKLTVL

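Variants in AAYL52 differ from the parent at up to three CDR positions; double and triple changes were sampled at random. Affinity was read by AlphaSeq, a pooled yeast mating assay with surface-displayed partners. Pairs that bind mate more often; barcode pairs of the diploids are counted by sequencing. Read counts were normalised to the haploid input and turned into Kd by a linear fit to BCL2-family pairs of known affinity, for each replicate. There are three technical replicates.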

The parent's light chain CDRs are EGDSLRYYYAN, GKNNRPS, SSRDSSGFQVF; each variant's own CDRs replace them letter for letter.
Scale: log10 of Kd in nM, estimated from mating counts; low values are strong binders.
An entry "n.d." has no value in the source: the pair was not observed among the diploids in that replicate. This suggests poor binding but is not conclusive.
Background: pairings of library AAYL52 with three empty control strains gave a value in 28% of cases (median 3.91, 5th percentile 2.90). Values in that range, when seen in few replicates, are hard to tell from nonspecific mating. The control count says in how many pairings with the empty strains this scFv gave a signal, with their mean in brackets.
For reference, the parent read 2.31 as the reference entry and 2.25 as a member of this library.

| CDR-L1 | CDR-L2 | CDR-L3 | replicates, log10 nM | control signals |
|---|---|---|---|---|
| EGDSLRYAYAN | GKTNRPS | SSRDSSTFQVF | 3.65 2.27 2.53 | 6/9 (4.21) |
| EGDSLRYYYAN | GKNNRPT | SSRASSGFQVY | 3.53 3.07 3.39 | 1/9 (2.72) |
| EMDKLRYYYAN | GKNNRPS | VSRDSSGFQVF | 2.79 2.48 2.45 | 6/9 (3.95) |
| EGDSCRYYYAN | GKNNRPS | SSIDSSGDQVF | 3.19 n.d. n.d. | 6/9 (4.25) |
| EGDSLRYYYFN | LKNNRPR | SSRDSSGFQVF | 4.21 5.75 n.d. | 0/9 |
| EGDSLRYYYAN | GKNNRPC | SSQDSSGFQVF | 3.37 2.59 3.30 | 3/9 (4.04) |
| EGDFLRYYYAN | GCNNRPS | SSRDSSGFSVF | n.d. n.d. 4.30 | 3/9 (3.65) |
| EGDSLRYYYAM | GKNNRSS | SSRDRSGFQVF | 4.42 n.d. n.d. | 3/9 (3.36) |
| EGDSLRYRYAN | GKNNRPS | LSRDSSGFQVF | 3.00 2.29 2.74 | 4/9 (3.18) |
| EGDSLREYYAN | GKNNRPS | TSRDSVGFQVF | 3.14 n.d. 2.41 | 3/9 (3.46) |
| EGDSLRYCYAN | QKNNRPS | SSIDSSGFQVF | n.d. n.d. 3.86 | 1/9 (3.52) |
| EVDSLRYYYAN | QKNNRPS | SSTDSSGFQVF | n.d. n.d. 3.17 | 1/9 (3.06) |
| EEDSLRYYEAN | GKNNRPV | SSRDSSGFQVF | 3.48 2.93 3.74 | 1/9 (4.14) |
| EIDSLRYYLAN | GKNNYPS | SSRDSSGFQVF | n.d. 3.33 4.19 | 1/9 (3.49) |
| EGDSLEYYYAN | GKNDRPS | SSRDSSGFQVR | 4.14 n.d. 4.11 | 2/9 (3.92) |
| EGKSLRYYYAN | GQNNRPS | SSRDSSGFQVC | 1.88 2.09 1.98 | 3/9 (3.86) |
| GGDSLRYYYAN | GKNNFPS | SSRDSSGFQVE | 4.60 5.12 n.d. | 2/9 (4.32) |
| EGDSLRYYYAN | GMTNRPS | SSRDGSGFQVF | n.d. n.d. 4.56 | 0/9 |
| EGKSLRYYYHN | GTNNRPS | SSRDSSGFQVF | 3.99 4.06 3.41 | 1/9 (4.35) |
| KGWSLRYYYAN | GKNNRPS | SSRDSSGVQVF | 3.89 2.82 3.12 | 3/9 (4.16) |
| EGNSLRYVYAN | GKNNRSS | SSRDSSGFQVF | 1.90 2.16 1.15 | 2/9 (4.55) |
| EGDALRYYYAN | GKNNRPS | SSRDTSGFQVF | 2.73 2.96 3.02 | 1/9 (4.53) |
| EGDSLMYYYAN | GKNNRPS | SKRDSSCFQVF | n.d. n.d. n.d. | 1/9 (4.64) |
| EGDSLRYEYYN | GKNNRPS | SSRRSSGFQVF | n.d. n.d. n.d. | 0/9 |
| EGDSWRYYYAE | GKNNRCS | SSRDSSGFQVF | 4.42 n.d. n.d. | 2/9 (4.07) |
| RGDSLRYYYAN | GKNNRPS | SSRDSSPFQVF | 3.08 2.67 1.83 | 5/9 (3.68) |
| EGDSLRYLYAN | GRNNRPS | SSRDSSGFQHF | n.d. n.d. 3.71 | 3/9 (4.14) |
| EGDSLRYYYAN | WKNWRPS | SARDSSGFQVF | n.d. n.d. n.d. | 2/9 (3.78) |
| EGDSLRYYYTN | GKNNRPS | SSWDCSGFQVF | 5.43 5.56 4.48 | 1/9 (4.21) |
| EGDSLRYYYAG | GKNNRPS | SSRLSSGFQVR | n.d. n.d. n.d. | 2/9 (3.51) |
| EGDSLRIYYAN | GKNNRLS | SSRDSSTFQVF | 3.95 3.60 n.d. | 2/9 (3.74) |

The closing 4 entries, repeated:

| CDR-L1 | CDR-L2 | CDR-L3 | replicates, log10 nM | control signals |
|---|---|---|---|---|
| EGDSLRYYYAN | WKNWRPS | SARDSSGFQVF | n.d. n.d. n.d. | 2/9 (3.78) |
| EGDSLRYYYTN | GKNNRPS | SSWDCSGFQVF | 5.43 5.56 4.48 | 1/9 (4.21) |
| EGDSLRYYYAG | GKNNRPS | SSRLSSGFQVR | n.d. n.d. n.d. | 2/9 (3.51) |
| EGDSLRIYYAN | GKNNRLS | SSRDSSTFQVF | 3.95 3.60 n.d. | 2/9 (3.74) |